{"source": "patent US20150038588A1", "about": "“COMPOSITIONS AND METHODS OF TREATMENT OF STATUS EPILEPTICUS” (published 2015)", "key": {"[1]": {"system": "pilocarpine-induced convulsive SE seizures", "conditions": "cited from earlier work"}, "[2]": {"system": "pilocarpine-induced ESE", "assay": "lithium-pilocarpine electrographic status epilepticus (ESE) model, EEG gamma-band power"}, "[3]": {"system": "electrically- and chemically-induced seizures", "conditions": "acute seizure models based on maximum electroshock and metrazol; cited from earlier work"}, "[4]": {"conditions": "in vivo; cited from earlier work"}, "[5]": {"conditions": "administered 30 min after first pilocarpine-induced seizure"}}}
{"compound": "CCCC(C(N)=O)C(C)CC", "note": "(racemic)", "values": [{"measurement": "ED50, block of pilocarpine-induced convulsive seizures", "setting": "[1]; [5]", "value": 84, "unit": "mg/kg"}, {"measurement": "ED97, block of pilocarpine-induced convulsive seizures", "setting": "[1]; [5]", "value": 149, "unit": "mg/kg"}, {"measurement": "time of rebound effect", "setting": "[2]; under some conditions (FIG. 3A-C)", "value": "7 to 10", "unit": "h"}]}
{"compound": "CCC(C)C(CC)C(N)=O", "note": "(stereo not drawn)", "values": [{"measurement": "efficacy against convulsive seizures", "setting": "[1]; 0 min (SE onset), 65 mg/kg", "value": "showed efficacy"}, {"measurement": "ED50 compared with SPD", "setting": "[3]", "value": "qualitatively similar to SPD"}, {"measurement": "deleterious effects (e.g. mortality)", "setting": "[2]; 180 mg/kg, 30 min after first motor seizure", "value": "no obvious deleterious effects"}, {"measurement": "teratogenicity compared with VPA", "setting": "[4]", "value": "distinctly less teratogenic than VPA"}]}
{"compound": "CN1C(=O)CN=C(c2ccccc2)c2cc(Cl)ccc21", "values": [{"measurement": "effect on ESE", "setting": "[2]; 10-100 mg/kg, 30 min after first motor seizure", "value": "no consistent detectable effect on ESE"}]}
{"compound": "NC(=O)N1c2ccccc2C=Cc2ccccc21", "values": [{"measurement": "ED50, block of pilocarpine-induced convulsive seizures", "setting": "[1]; [5]", "value": 50, "unit": "mg/kg"}]}
